Data from patent publication US20050175695A1, “Carvedilol free base, salts, anhydrous forms or solvates thereof, corresponding pharmaceutical compositions, controlled release formulations, and treatment or delivery methods” (priority 2003, published 2005).

What was measured:
[1] = Aqueous solubility at 25° C. of carvedilol free base and three salts (Table 13); type: physicochemical; settings: for pH of the solution: 25° C.
[2] = Solubility in water of carvedilol free base and monocitrate salt over time (Table 11); type: physicochemical; settings: 25° C.

Carvedilol Monocitrate Monohydrate [Carvedilol Mono-Citrate Salt]
aqueous solubility compared with free base [1]: much better aqueous solubility than the free base
pH of the solution ([1]; 1 hr): 3.3
pH of the solution ([1]; 4 hr): 3.2
pH of the solution ([1]; 24 hr): 3.2
pH of the filtered solution ([2]; 1 hr): 3.5
pH of the filtered solution ([2]; 4 hr): 3.4
pH of the filtered solution ([2]; 24 hr): 3.0
